Experimental data from ChEMBL document CHEMBL1138697, “Development of a new class of potential antiatherosclerosis agents: NO-donor antioxidants” (Bioorg Med Chem Lett, 2004).

Assays:
Rattus norvegicus [1] = species: Rattus norvegicus; experiment: Vasodilating activity in rat aorta strip in absence of 1H-[1,2,4]oxadiazolo[4,3-a]quinoxalin-1-one (ODQ)
Rattus norvegicus [2] = species: Rattus norvegicus; experiment: Vasodilating activity in rat aorta strip in presence of 1H-[1,2,4]oxadiazolo[4,3-a]quinoxalin-1-one (ODQ) at 100 uM
Rattus norvegicus [3] = species: Rattus norvegicus; experiment: Tested for inhibition of ferrous salt/ascorbate induced lipidic peroxidation of membrane lipid of rat hepatocytes at 1 mM; IA = inactive; details: hepatocyte

Compound: CCCO[N+](=O)[O-]
- EC50 (Rattus norvegicus [1]): 41 µM
- EC50 (Rattus norvegicus [2]): 4.6%
- IC50 (Rattus norvegicus [3]): Not Active
